Measurements: US20080311604A1, “Methods for Prediction and Prognosis of Cancer, and Monitoring Cancer Therapy” (priority 2005, published 2008)
Where two headings read alike, the source gives them in different places.

Tested on: soluble VEGF-R2
Conditions: plasma, renal cell carcinoma patients

CNC(=O)c1cc(Oc2ccc(NC(=O)Nc3ccc(Cl)c(C(F)(F)F)c3)cc2)ccn1 [Sorafenib]
Median soluble VEGF-R2 (Cycle 1 Day 21): 9704 pg/mL
Median soluble VEGF-R2 (Cycle 3 Day 1): 8964 pg/mL
Median soluble VEGF-R2 (Sorafenib group, Baseline (pretreatment)): 12237 pg/mL
